Data taken from PubChem BioAssay (NCI).
Some tests of the compounds listed are not included; inactive here does not mean inactive elsewhere.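 Test compounds were applied to cells in 96-well plates for 48 hours at 5 doses. GI50 is the concentration that inhibits growth by half.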

Assays:
Test in all cases: growth of human tumour cells (NCI), 48 h; in the data active = GI50 below about 0.43 µM; inactive = the rest
SF-539 CNS = system: SF-539 CNS
LOX IMVI melanoma = system: LOX IMVI melanoma
HOP-62 NSCLC = system: HOP-62 NSCLC
U251 CNS = system: U251 CNS
SK-MEL-5 melanoma = system: SK-MEL-5 melanoma
ACHN renal = system: ACHN renal
NCI-H23 lung = system: NCI-H23 lung
OVCAR-8 ovarian = system: OVCAR-8 ovarian
MDA-N = system: MDA-N
PC-3 prostate = system: PC-3 prostate
UACC-62 melanoma = system: UACC-62 melanoma
HCC-2998 colon = system: HCC-2998 colon
SR leukemia = system: SR leukemia
EKVX NSCLC = system: EKVX NSCLC
SK-OV-3 ovarian = system: SK-OV-3 ovarian
NCI/ADR-RES ovarian = system: NCI/ADR-RES ovarian
SN12C renal = system: SN12C renal
MCF7 breast = system: MCF7 breast
T-47D breast = system: T-47D breast
A549 NSCLC = system: A549 NSCLC
OVCAR-3 ovarian = system: OVCAR-3 ovarian
M14 melanoma = system: M14 melanoma
MDA-MB-231 breast = system: MDA-MB-231 breast
786-0 renal = system: 786-0 renal
DU-145 prostate = system: DU-145 prostate
UACC-257 melanoma = system: UACC-257 melanoma
HL-60(TB) leukemia = system: HL-60(TB) leukemia
SNB-19 CNS = system: SNB-19 CNS
K-562 leukemia = system: K-562 leukemia
OVCAR-5 ovarian = system: OVCAR-5 ovarian
RXF 393 renal = system: RXF 393 renal
UO-31 renal = system: UO-31 renal
RPMI-8226 leukemia = system: RPMI-8226 leukemia
SF-295 CNS = system: SF-295 CNS
MALME-3M melanoma = system: MALME-3M melanoma
CCRF-CEM leukemia = system: CCRF-CEM leukemia
SNB-75 CNS = system: SNB-75 CNS
TK-10 renal = system: TK-10 renal
HT29 colon = system: HT29 colon
NCI-H522 lung = system: NCI-H522 lung
HCT-116 colon = system: HCT-116 colon
KM12 colon = system: KM12 colon
IGROV1 ovarian = system: IGROV1 ovarian
NCI-H226 lung = system: NCI-H226 lung
COLO 205 colon = system: COLO 205 colon
HCT-15 colon = system: HCT-15 colon
CAKI-1 renal = system: CAKI-1 renal
SK-MEL-28 melanoma = system: SK-MEL-28 melanoma
SW-620 colon = system: SW-620 colon
SF-268 CNS = system: SF-268 CNS

Measured: GI50

CN1CCC(OC(=O)C(O)(c2ccccc2)c2ccns2)CC1 (stereo not given)
inactive: SF-539 CNS > 100 µM | LOX IMVI melanoma > 100 µM | HOP-62 NSCLC > 100 µM | U251 CNS > 100 µM | SK-MEL-5 melanoma > 100 µM | ACHN renal > 100 µM | NCI-H23 lung > 100 µM | OVCAR-8 ovarian > 100 µM | MDA-N > 100 µM | PC-3 prostate > 100 µM | UACC-62 melanoma > 100 µM | HCC-2998 colon > 100 µM | SR leukemia > 100 µM | EKVX NSCLC > 100 µM | SK-OV-3 ovarian > 100 µM | NCI/ADR-RES ovarian > 100 µM | SN12C renal > 100 µM | MCF7 breast > 100 µM | T-47D breast > 100 µM | A549 NSCLC > 100 µM | OVCAR-3 ovarian > 100 µM | M14 melanoma > 100 µM | MDA-MB-231 breast > 100 µM | 786-0 renal > 100 µM | DU-145 prostate > 100 µM | UACC-257 melanoma > 100 µM | HL-60(TB) leukemia > 100 µM | SNB-19 CNS > 100 µM | K-562 leukemia > 100 µM | OVCAR-5 ovarian > 100 µM | RXF 393 renal > 100 µM | UO-31 renal > 100 µM | RPMI-8226 leukemia > 100 µM | SF-295 CNS > 100 µM | MALME-3M melanoma > 100 µM | CCRF-CEM leukemia > 100 µM | SNB-75 CNS > 100 µM | TK-10 renal > 100 µM | HT29 colon > 100 µM | NCI-H522 lung > 100 µM | HCT-116 colon > 100 µM | KM12 colon > 100 µM | IGROV1 ovarian > 100 µM | NCI-H226 lung > 100 µM | COLO 205 colon > 100 µM | HCT-15 colon > 100 µM | CAKI-1 renal > 100 µM | SK-MEL-28 melanoma > 100 µM | SW-620 colon > 100 µM | SF-268 CNS > 100 µM
